This passage reports IC50 results from ChEMBL document CHEMBL1127104, “L-708,474: The C5-cyclohexyl analogue of L-365,260, a selective high affinity ligand for the CCKB/gastrin receptor” (Bioorg Med Chem Lett, 1993).

Sequences of proteins named here, by UniProt entry; tags and fusion partners are left off.
UniProt P30551, whole entry: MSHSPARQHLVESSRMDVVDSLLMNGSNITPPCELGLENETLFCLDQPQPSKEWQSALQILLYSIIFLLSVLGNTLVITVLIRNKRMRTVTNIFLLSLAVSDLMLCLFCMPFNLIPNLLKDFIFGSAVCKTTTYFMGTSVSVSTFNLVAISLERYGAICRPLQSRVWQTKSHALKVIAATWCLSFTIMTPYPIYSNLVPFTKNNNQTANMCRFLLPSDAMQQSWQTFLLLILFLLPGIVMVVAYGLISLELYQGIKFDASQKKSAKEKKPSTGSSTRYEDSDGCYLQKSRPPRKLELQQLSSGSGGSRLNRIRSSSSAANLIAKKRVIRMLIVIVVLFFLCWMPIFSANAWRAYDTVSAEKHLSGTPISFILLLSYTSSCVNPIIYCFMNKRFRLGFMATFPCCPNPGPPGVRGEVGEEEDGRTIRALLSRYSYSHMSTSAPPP

The target of the assay is Cholecystokinin receptor type A (Rattus norvegicus, UniProt P30551). Description: In vitro test for inhibition of [125I]CCK binding to Cholecystokinin type A receptor from rat pancreatic tissues was determined.

As for `Cc1cccc(NC(=O)N[C@H]2N=C(C3CCCCC3)c3ccccc3N(C)C2=O)c1`, the IC50 came out at 0.455 nM.

Broadly, the IC50 is the concentration that inhibits the measured activity by half. A lower IC50 goes with greater potency in that assay.
